Target: α-amylase from Bacillus licheniformis (Bacillus licheniformis, UniProt P06278)
Test: biochemical
Settings: mean ± standard deviation (n = 3)
Method: The α-glucosidase and α-amylase inhibitory activities of compounds Pyz-1 and Pyz-2 were determined using the method described in our previous works[48],[49].
All other reagents and standards were of analytical reagent grade.
The α-amylase assay was performed by reacting various concentrations of compounds with α-amylase and starch solution by following the DNSA method with minor modifications (Hashim et al., 2013). The evaluated samples were dissolved in tampon phosphate with various concentrations. The sample solution (10μL) was mixed with 240μL (sodium phosphate buffer 0.02M pH6.9) containing α-amylase (240U/mL), and incubated at 37°C for 20 min. After pre-incubation, 250 µL of 1% starch solution were added to each tube and incubated for 15 min. 1ml of dinitrosalicylic acid was added to stop the reaction, then incubate the solution in a water bath at 90°C for 10 min. The mixture was diluted with 1 mL deionized water and the absorbance (Abs) was measured at 540 nm.
The IC50 values were determined by the percentage of inhibitions at different concentrations.

Protein sequences, listed by entry. Tags and fused reporters are not part of them. Residues count along the entry.
UniProt P06278, 30-512: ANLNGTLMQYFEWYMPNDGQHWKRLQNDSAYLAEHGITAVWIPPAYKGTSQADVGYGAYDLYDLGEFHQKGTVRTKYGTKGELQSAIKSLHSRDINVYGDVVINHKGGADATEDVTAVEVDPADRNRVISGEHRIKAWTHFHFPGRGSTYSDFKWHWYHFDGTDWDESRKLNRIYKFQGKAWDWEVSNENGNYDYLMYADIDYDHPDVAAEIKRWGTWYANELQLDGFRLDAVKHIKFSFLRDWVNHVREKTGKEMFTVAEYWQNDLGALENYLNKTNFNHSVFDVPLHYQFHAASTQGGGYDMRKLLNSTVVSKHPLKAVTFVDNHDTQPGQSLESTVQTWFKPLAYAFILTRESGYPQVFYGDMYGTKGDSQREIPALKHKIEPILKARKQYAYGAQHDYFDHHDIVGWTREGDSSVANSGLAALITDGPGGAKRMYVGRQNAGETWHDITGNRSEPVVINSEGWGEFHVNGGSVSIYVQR

C[C@H]1O[C@H](O[C@H]2[C@H](O)[C@@H](O)[C@@H](O[C@H]3[C@H](O)[C@@H](O)C(O)O[C@@H]3CO)O[C@@H]2CO)[C@H](O)[C@@H](O)[C@@H]1N[C@H]1C=C(CO)[C@@H](O)[C@H](O)[C@H]1O (stereo partly shown) [Acarbose, reference compound]
IC50: 115.6 ± 0.57 µM

Reference: article PMC10789823, “Synthesis, structural characterizations, in vitro biological evaluation and computational investigations of pyrazole derivatives as potential antidiabetic and antioxidant agents” (Scientific Reports, 2024)
